Test results reported in patent US4959361A, “Triazolo(4,3-A)(1,4)benzodiazepines and thieno (3,2-F)(1,2,4)triazolo(4,3-A)(1,4)diazepine compounds which have useful activity as platelet activating factor (PAF) antagonists” (Hoffmann-La Roche Inc., priority 1988, dated 1990).

Amino acid sequences for entries named in this document (tags omitted). Residues count along the entry.
UniProt A0A8I3NSH0, 1-343: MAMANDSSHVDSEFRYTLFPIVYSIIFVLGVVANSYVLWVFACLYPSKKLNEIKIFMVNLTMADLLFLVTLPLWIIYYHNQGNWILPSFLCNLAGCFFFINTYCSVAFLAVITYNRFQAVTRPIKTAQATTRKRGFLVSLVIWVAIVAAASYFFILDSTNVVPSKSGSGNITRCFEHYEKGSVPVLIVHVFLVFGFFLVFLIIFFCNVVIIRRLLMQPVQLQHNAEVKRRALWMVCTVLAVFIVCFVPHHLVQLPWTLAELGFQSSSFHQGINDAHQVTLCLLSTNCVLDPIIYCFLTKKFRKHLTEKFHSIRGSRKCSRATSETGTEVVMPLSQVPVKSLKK

Tests used:
[1] = target: PAF-binding, dog platelets (Canis lupus familiaris, UniProt A0A8I3NSH0); assay: PAF binding assay (radiolabelled H-PAF, washed dog platelets); details: read-out: PAF-binding IC-50, Table II, triazolobenzodiazepines, 10 minutes at room temperature
Protocol: The binding assay was done in […] polyethylene microcentrifuge tubes (Beckman) containing 50 μl of an oil mixture of 2 parts Siliconol AR200 (Serva): 1 part Silicone Fluid (Arthur H. Thoma). Buffer, standards, or analogs (150 μl total volume) were added to the tubes. Radiolabelled H-PAF (50 μl) was then added to the tubes. The reaction was started by the addition of 50 μl of dog platelets (2×10^7 platelets). The tubes were capped, inverted several times to mix, and incubated for 10 minutes at room temperature. The platelets were separated from the incubation mixture by centrifuging 1 minute in a Beckman Microfuge B centrifuge. The tip of the microfuge tube was cut off, and the platelets were washed out of the tip with 200 μl of 50% methanol (Burdick and Jackson). Aquasol (NEN, 10 ml) was added and the radioactivity in the samples was determined using an LS 8100 Beckman liquid scintillation counter linked to a Techtran tape recorder Data was processed through an in-house computer system. Alternatively, radioactivity was determined using a Searle Mark III liquid scintillation counter linked to a Iso-Data microprocessor.
(b) preparation of platelets
Blood was collected from anesthesized or unanesthesized dogs into 50 ml plastic centrifuge tubes containing 3.8% sodium citrate as the anticoagulant (1 volume of citrate/9 volumes of blood). […] An aliquot of the washed platelets was counted. […]

[2] = tested on: PAF Induced Bronchoconstriction; assay: PAF induced bronchoconstriction assay, intravenous testing; details: 1 minute pretreatment, PAF 1 μg/kg i.v.
Protocol: Male animals (Hartlet Strain, 400-500 g were anesthetized with urethane (2 g/kg, i.p.). Each animals' trachea was cannulated and the guinea pigs were respirated using a Harvard small animal rodent respirator (3.0 cc stroke volume, 40 breaths per min.). Tracheal pressure was recorded from a cannula inserted in the trachea and connected to a Statham pressure transducer.
The jugular vein was cannulated for administering compounds. Spontaneous breathing was arrested with succinylcholine (1.2 mg/kg, i.v.) administered 2 minutes prior to intravenous injection of platelet activating factor PAF).
For the intravenous testing, the guinea pig is given a 1-minute pretreatment with propranolol at a dose of 0.1 mg/kg intravenously. The test compound is administered with a 1 minute pretreatment prior to intravenous challenge with PAF. The animal is then challenged with a 1 μg/kg intravenous dose of PAF and the change in tracheal pressure is measured.
The change in tracheal pressure is determined by subtracting the steady state baseline achieved after administration of succinylcholine from the peak broncho. constriction seen after challenge with PAF. The mean is calculated for each test compound and compared to the mean of the control animals to give the percent inhibition of bronchoconstriction. The standard error is calculated as the standard error of the mean.

[3] = tested on: PAF Induced Bronchoconstriction; assay: PAF induced bronchoconstriction assay, oral testing; details: Table I

Structure (SMILES)	IC50 [1]	Bronchoconstriction ID-50 i.v. ([2]; Table II)	Bronchoconstriction ID-50 p.o. 2 hr [3]	Bronchoconstriction ID-50 i.v. ([2]; Table I)
COc1c(C)c(C)c2c(c1C)CCC(C)(C#Cc1ccc3c(c1)C(c1ccccc1F)=NCc1nnc(C)n1-3)O2 (stereo not shown)	70 nM	0.03 mg/kg		
Cc1nnc2n1-c1sc(C#CCN3C(=O)COc4ccccc43)cc1C(c1ccccc1Cl)=NC2			0.076 mg/kg	0.007 mg/kg
